A selection: hits, their analogues and other compounds. The true share with any hit is near 4.2%.
Yeast UUG start: alters start codon recognition fidelity in yeast; AID 602363; activity score, % at 18.7 µM; 350,000 tested, 0.13% active; S. cerevisiae UUG-firefly luciferase reporter, luminescence/redox ratio;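 active means replicate mean at a twofold rise or more, about +100% in these data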;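 further: firefly luciferase made from a UUG start codon reports start codon fidelity; reporter light over untreated wells divided by growth signal over untreated wells; some hits fall short of that in this replicate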
MC4R antag cAMP: blocks human MC4R cAMP signaling; P32245; MC4R-expressing cells, MTII-stimulated cAMP, LANCE TR-FRET; inhibition, % at 6.5 µM; 360,000 compounds, 0.48% hits; AID 540295;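 active = inhibition above its plate's cutoff, the mean of tested wells on that plate plus 3 SD, cut at about 29% in these data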;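 also: 0% = Melanotan II alone and 100% = Melanotan II plus saturating MCL0020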
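System: U2OS cells stably expressing human melanocortin 4 receptor (MC4R). Reagent: Melanotan II challenge after compound preincubation. Doses: 6.5 µM. Times: 30-min compound, 1-h challenge, 1-h detection, room temperature. Measured by: TR-FRET with Eu-cAMP and labeled anti-cAMP, 671 nm. Replicates: singlicate.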
ALR inh: inhibitors of human sulfhydryl oxidase ALR; P55789; purified ALR, DTT oxidation, H2O2 HRP-luminol luminescence; inhibition, % (test concentration not listed); actives 3.8% (n = 290,000); AID 485317;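 active = mean and each replicate at 75% or more; inconclusive = only one of the two met; inactive = neither met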;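 also: stock transfer was 7.5 nL into about 7.5 µL; 0% = neutral wells and 100% = wells with inactivated enzyme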
NALP1 inh: blocks the NALP1 inflammasome reconstituted in yeast. S. cerevisiae NALP1/ASC/caspase-1 growth, X-gal OD620, 72 h. inhibition, % at 10 µM. 280,000 compounds, 0.61% hits; in the data active = inhibition mostly above about 24%, no sharp cut-off; inactive = mostly below about 32%
MC4R barr agon: human MC4R agonism via beta-arrestin. P32245. activation, % at 8.9 µM. 360,000 compounds, 0.98% hits. U2OS MC4R beta-arrestin complementation, luminescence; percent of melanotan II response, DMSO zero;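 active = activation above a per-plate cutoff, the mean activation of sample wells on that plate plus 3 SD, cut at about 8% in these data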
HDAC3 inhib: inhibitors of human histone deacetylase 3; recombinant HDAC3, fluorogenic peptide/trypsin coupled, fluorescence; inhibition, % at 8.3 µM; 320,000 compounds, 0.15% hits; AID 2718; in the data active = inhibition above about 26%, passing the limit was not always enough
* marks the source's active call; other numbers are inactive results; . = no result given.

Sample of the layout (3 entries):
no. | Yeast UUG start | MC4R antag cAMP | ALR inh | NALP1 inh | MC4R barr agon | HDAC3 inhib | Compound
1 | 0.7 | . | . | . | . | . | C[C@H]1CN([C@@H](C)CO)S(=O)(=O)c2ccc(-c3cccc(C#N)c3)cc2O[C@H]1CN(C)Cc1cccc(F)c1
2 | -15.5 | -3.5 | 3.8 | 31.8* | -0.3 | -0.6 | CC(=O)NC(Cc1ccc(F)c(F)c1)C(=O)NC1CCN(C(=O)c2ccc(Cl)cc2)CC1 (stereo not given)
3 | . | -0.7 | 99.1* | 18.2 | -0.1 | -4.5 | CCOc1c(C=C(C#N)C#N)c2ccccc2n1CC

The listing (from the top)
no. | Yeast UUG start | MC4R antag cAMP | ALR inh | NALP1 inh | MC4R barr agon | HDAC3 inhib | Compound
1 | 0.7 | . | . | . | . | . | C[C@H]1CN([C@@H](C)CO)S(=O)(=O)c2ccc(-c3cccc(C#N)c3)cc2O[C@H]1CN(C)Cc1cccc(F)c1
2 | -15.5 | -3.5 | 3.8 | 31.8* | -0.3 | -0.6 | CC(=O)NC(Cc1ccc(F)c(F)c1)C(=O)NC1CCN(C(=O)c2ccc(Cl)cc2)CC1 (stereo not given)
3 | . | -0.7 | 99.1* | 18.2 | -0.1 | -4.5 | CCOc1c(C=C(C#N)C#N)c2ccccc2n1CC
4 | . | -35.8 | . | . | 3.0 | . | CCn1c2ccccc2c2cc(/C=C(/C#N)C(N)=S)ccc21
5 | . | 0.9 | 98.1* | 21.0 | -0.5 | 0.4 | CCc1nnc(SCC(=O)Nc2ccccc2Cl)nc1CC
6 | -14.8 | 1.5 | -1.0 | 14.8 | -1.1 | 2.1 | CCn1c(SCC(=O)Nc2ccccc2Cl)nnc1C1CC1
7 | -2.5 | . | . | . | . | . | CC(C)C(=O)Nc1ccc2c(c1)C(=O)N(C)[C@H]1CC[C@H](CC(=O)NCC3CC3)O[C@H]1CO2
8 | -19.7 | 6.6 | 98.8* | -7.7 | -0.4 | 0.9 | CN(C)C(=O)CSc1nc(-c2cccs2)c(-c2cccs2)[nH]1
9 | . | 2.6 | 98.0* | 8.7 | -0.9 | 5.6 | NNC(=O)/C=C/c1ccc(Cl)cc1Cl
10 | -19.0 | 3.2 | 86.6* | 14.7 | -2.8 | -10.6 | O=c1c2ccccc2[nH]c2ccc(O)cc12
11 | -4.4 | 1.1 | 98.0* | 7.1 | 0.8 | -21.9 | CCOC(=O)c1c(-c2ccccc2)[nH]c2ccc(O)cc12
12 | -14.7 | 18.7 | 1.0 | 10.5 | 0.3 | -0.1 | Cc1ccc2[nH]c3ccccc3c(=O)c2c1
13 | -8.7 | -1.6 | 1.6 | . | 0.0 | 4.7 | CCOC(=O)CSc1nc2ccccc2c(=O)[nH]1
14 | -20.5 | 10.0 | -2.6 | 42.7* | -1.0 | -3.7 | CCOC(=O)c1nc2ccccc2c(=O)[nH]1
15 | 3.5 | 8.1 | -3.0 | -6.1 | 8.7* | -7.4 | Cc1cccc(NC(=O)CCSc2ccccc2)c1C
16 | . | -1.9 | 2.6 | 0.5 | 0.3 | -6.5 | Cc1ccc(NC(=O)CCSc2ccccc2)c(C)c1
17 | -9.8 | . | . | . | . | . | CN1c2ccc(-c3ccc(C#N)cc3)cc2[C@@H]2[C@@H](CCN2C(=O)CC2CC2)[C@H]1CO
18 | 8.2 | . | . | . | . | . | C[C@@H]1CN([C@H](C)CO)S(=O)(=O)c2ccc(-c3ccc(C(=O)N(C)C)cc3)cc2O[C@@H]1CN(C)C(=O)C1CCCCC1
19 | . | . | . | 18.4 | . | . | Cc1ccc2c(C)nc(NC3=NCN(CCc4ccccc4)CN3)nc2c1
20 | . | . | . | 36.7* | . | . | Cc1nc(NC2=NCN(CCc3ccccc3)CN2)nc2ccccc12
21 | . | . | . | 31.9* | . | . | Cc1nc(NC2=NCN(Cc3ccccc3)CN2)nc2ccccc12
22 | -28.7 | 14.8 | . | . | -2.2 | . | O=C(Nc1nnc(-c2ccco2)o1)c1ccc(Br)s1
23 | . | -2.3 | . | -0.6 | -0.2 | 3.2 | O=C(Nc1nnc(-c2ccccn2)o1)c1cccc(Cl)c1
24 | -33.4 | 6.5 | 96.4* | -4.5 | -2.2 | -4.1 | O=C(Nc1nnc(-c2ccco2)o1)c1ccc(Cl)s1
25 | . | 1.6 | 96.3* | 6.3 | -0.9 | -1.4 | O=C(Nc1nnc(-c2ccco2)o1)c1cccc(Cl)c1
26 | 4.2 | . | . | . | . | . | C[C@H](CO)N1C[C@H](C)[C@@H](CN(C)S(=O)(=O)c2cccs2)OCCCC[C@H](C)Oc2ccc(NC(=O)c3ccncc3)cc2C1=O
27 | -6.3 | . | . | . | . | . | COc1ccccc1S(=O)(=O)N(C)C[C@@H]1Oc2cc(C#CCC(C)C)ccc2S(=O)(=O)N([C@@H](C)CO)C[C@H]1C
28 | 0.1 | 4.6 | -17.1 | 5.0 | -1.4 | 8.3 | CCCNC(=O)c1noc2c1CCc1ccccc1-2
29 | -19.5 | 12.5 | -24.5 | 23.0* | -1.6 | -11.6 | O=C(NCCN1CCOCC1)c1noc2c1CCc1ccccc1-2
30 | . | 18.1 | 88.7* | 3.5 | -0.5 | 9.9 | Cc1csc(NC(=O)Cc2coc3cc(C)c(C(C)C)cc23)n1

Some values from the list:
In Yeast UUG start, `C[C@@H]1CN([C@H](C)CO)S(=O)(=O)c2ccc(-c3ccc(C(=O)N(C)C)cc3)cc2O[C@@H]1CN(C)C(=O)C1CCCCC1` has 8.2
In HDAC3 inhib, `O=C(Nc1nnc(-c2ccco2)o1)c1cccc(Cl)c1` has -1.4
In MC4R barr agon, `CCn1c2ccccc2c2cc(/C=C(/C#N)C(N)=S)ccc21` has 3.0
In NALP1 inh, `CCn1c(SCC(=O)Nc2ccccc2Cl)nnc1C1CC1` has 14.8
In NALP1 inh, `Cc1nc(NC2=NCN(CCc3ccccc3)CN2)nc2ccccc12` has 36.7*
In Yeast UUG start, `O=C(Nc1nnc(-c2ccco2)o1)c1ccc(Br)s1` has -28.7

Continued.
no. | Yeast UUG start | MC4R antag cAMP | ALR inh | NALP1 inh | MC4R barr agon | HDAC3 inhib | Compound
31 | . | 21.5 | -7.5 | 37.8 | 4.4 | 6.8 | Cc1cc2occ(CC(=O)NCc3cccs3)c2cc1C(C)C
32 | -6.6 | . | . | . | . | . | CCCN1C[C@H](C)[C@H](OC)CN(C)C(=O)c2ccc(NC(=O)c3ccccc3)cc2OC[C@@H]1C
33 | 12.1 | . | . | . | . | . | CC(C)NC(=O)NCC[C@H]1CC[C@@H](NS(=O)(=O)c2ccc(-c3ccccc3)cc2)[C@@H](CO)O1
34 | 1.6 | 9.9 | -6.3 | 56.8* | 3.8 | -1.6 | COc1ccc(CNCC(O)(c2ccccc2)c2ccc(Cl)cc2)cc1 (stereo not given)
35 | . | 1.6 | 98.4* | 6.3 | 0.2 | 10.3 | Cc1cc(=O)[nH]c(S/C=C/c2ccccc2)n1
36 | -6.2 | . | . | . | . | . | C[C@@H]1CN([C@@H](C)CO)C(=O)c2cc(-c3cccc(F)c3)cnc2O[C@H]1CN(C)Cc1cccnc1
37 | -23.7 | 6.5 | 95.3* | -8.1 | 0.5 | -1.0 | CCOc1ccccc1N1C(=O)CC(N(O)c2ccccc2)C1=O (stereo not given)
38 | -8.5 | 6.8 | 52.1 | -3.6 | -2.6 | -4.6 | Cc1c(Cl)cccc1N1C(=O)CC(N(O)c2ccccc2)C1=O (stereo not given)
39 | -4.7 | . | . | . | . | . | O=S(=O)(c1ccc(F)cc1)N1CC[C@@H]2[C@@H](CO)Nc3ccc(Br)cc3[C@@H]21
40 | -5.2 | -0.6 | 97.5* | 19.0 | -2.5 | 3.7 | Cc1nnc(Sc2nc3ccccc3o2)c2ccccc12
41 | 9.8 | . | . | . | . | . | CO[C@H]1CN(C)C(=O)c2ccc(NS(=O)(=O)c3ccccc3)cc2OC[C@@H](C)N(C)C[C@H]1C
42 | -13.3 | -5.6 | 99.1* | . | -1.4 | 0.5 | C(=Nc1ccc(N2CCOCC2)cc1)c1c[nH]c2ccccc12
43 | . | . | . | -11.3 | . | 6.3 | Oc1ccc2ccccc2c1C=Nc1ccc(N2CCOCC2)cc1
44 | . | 4.0 | 97.3* | 2.0 | -3.4 | -0.6 | Cc1cccc(-c2nc3sc(C)cc3c(=O)o2)c1
45 | 8.9 | . | . | . | . | . | CC(C)NC(=O)Nc1ccc2c(c1)C(=O)N([C@H](C)CO)C[C@H](C)[C@H](CN(C)Cc1ccc(C(F)(F)F)cc1)OCCCC[C@H](C)O2
46 | 6.8 | 9.8 | 58.6 | . | 0.1 | 16.7 | CCC(CO)Oc1cc(NCc2ccccc2)c2ncn(C(C)C)c2c1 (stereo not given)
47 | 4.7 | 11.9 | 98.6* | . | -1.3 | -2.3 | CCC(CO)Oc1cc(NCc2ccc(O)cc2)c2ncn(C(C)C)c2c1 (stereo not given)
48 | -27.9 | -6.1 | 83.4* | . | 1.1 | -1.0 | CCC(COC)Oc1cc(NCc2ccccc2)c2ncn(C(C)C)c2c1 (stereo not given)
49 | -10.4 | . | . | . | . | . | CCCC(=O)Nc1ccc2c(c1)OC[C@@H](C)N(CC1CCCC1)C[C@@H](C)[C@@H](OC)CN(C)C2=O
50 | . | 15.4 | 10.9 | -13.8 | -2.1 | 0.0 | O=C(O)c1cnn(-c2nc(-c3cccc(F)c3)cs2)c1C(F)(F)F
51 | -15.7 | 4.1 | 98.9* | 13.3 | -0.1 | 4.6 | Nc1cccc(-c2csc(-n3ncc(C(=O)O)c3C(F)(F)F)n2)c1
52 | . | 1.7 | . | 0.8 | -1.2 | -7.6 | Cc1cc(=O)[nH]c2c3ccccc3nn12
53 | -14.4 | 2.6 | -3.3 | 24.8* | 0.5 | -0.1 | Cc1cc(C)n2nc3ccccc3c2n1
54 | 38.0 | . | . | . | . | . | CCN(C[C@@H]1[C@@H](c2ccc(-c3ccccc3)cc2)[C@H](CO)N1C(C)=O)C(C)=O
